Target: T1, human recombinant monoacylglycerol lipase (MAGL) (Homo sapiens, UniProt Q99685)
T1 construct: gene MGLL
Experiment: biochemical

Protein sequences, listed by entry. Tags and fused reporters are not part of them.
UniProt Q99685, whole entry: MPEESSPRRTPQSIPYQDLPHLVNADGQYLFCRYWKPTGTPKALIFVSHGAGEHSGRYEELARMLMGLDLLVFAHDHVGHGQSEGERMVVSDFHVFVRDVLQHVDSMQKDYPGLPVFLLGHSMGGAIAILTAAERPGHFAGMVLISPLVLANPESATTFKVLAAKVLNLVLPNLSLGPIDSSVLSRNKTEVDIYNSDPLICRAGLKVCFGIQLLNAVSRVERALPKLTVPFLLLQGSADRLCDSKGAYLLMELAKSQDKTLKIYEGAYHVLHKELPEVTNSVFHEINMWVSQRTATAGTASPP

SMILES: O=C(Oc1ccc([N+](=O)[O-])cc1)N1CCN(Cc2cccc(Oc3ccccc3)c2)CC1 [JZL195]
- IC50: 331 nM

Source: publication PMC12430169, “Notoginsenoside R1, a Metabolite from Panax notoginseng, Prevents Paclitaxel-Induced Peripheral Neuropathic Pain in Mice” (Molecules, 2025)
